# Laboratory results from patent US10183915B2, “Axially chiral isomers, and preparation methods therefor and pharmaceutical uses thereof” (MEDSHINE DISCOVERY INC., priority 2015, dated 2019).
# Protein sequences, listed by entry. Tags and fused reporters are not part of them. Lines headed by an entry give the natural chain unless they say otherwise; changes in a name come on top.
# UniProt Q96S37: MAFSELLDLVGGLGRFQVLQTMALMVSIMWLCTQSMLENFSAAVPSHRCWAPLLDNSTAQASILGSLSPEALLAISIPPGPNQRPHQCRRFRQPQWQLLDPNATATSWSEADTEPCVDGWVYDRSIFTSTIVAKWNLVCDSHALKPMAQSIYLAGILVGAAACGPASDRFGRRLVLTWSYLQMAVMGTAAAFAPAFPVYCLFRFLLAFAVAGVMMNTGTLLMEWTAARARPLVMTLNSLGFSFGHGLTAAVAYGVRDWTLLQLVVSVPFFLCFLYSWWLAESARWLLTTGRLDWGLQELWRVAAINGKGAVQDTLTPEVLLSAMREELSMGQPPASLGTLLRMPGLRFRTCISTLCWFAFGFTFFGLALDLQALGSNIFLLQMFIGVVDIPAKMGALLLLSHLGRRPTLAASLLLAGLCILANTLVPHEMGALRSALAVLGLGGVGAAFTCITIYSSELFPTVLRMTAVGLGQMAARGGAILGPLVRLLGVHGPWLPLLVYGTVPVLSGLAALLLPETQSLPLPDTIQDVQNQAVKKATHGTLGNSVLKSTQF
# Molecular target: T1, human URAT1 (Homo sapiens, UniProt Q96S37)
# T1 construct: host or cells: HEK293
# Experiment: Inhibition of URAT1-mediated uptake of 14C-labeled uric acid in stably transfected HEK293 cells
# Assay type: cell-based
# Details: 14C-uric acid 50 μM, n = 3, read-out: IC50 of URAT-1 inhibitory effect
smiles,measurement,value
"O=C(O)CSc1nnc(Br)n1-c1ccc(C2CC2)c2ccccc12 (racemic) [(±)-Lesinurad, Lesinurad, reference compound]",IC50,11.7 µM
"O=C(O)CSc1nnc(Br)n1-c1ccc(C2CC2)c2ccccc12 (single isomer, unassigned) [(+)-Lesinurad]",IC50,3.84 µM
"O=C(O)CSc1nnc(Br)n1-c1ccc(C2CC2)c2ccccc12 (single isomer, unassigned) [(−)-Lesinurad]",IC50,17.2 µM
